The chains behind the UniProt entries cited, without tags or fusion partners. Residues count along the entry.
UniProt P37231, 238-503 limits assumed, species assumed: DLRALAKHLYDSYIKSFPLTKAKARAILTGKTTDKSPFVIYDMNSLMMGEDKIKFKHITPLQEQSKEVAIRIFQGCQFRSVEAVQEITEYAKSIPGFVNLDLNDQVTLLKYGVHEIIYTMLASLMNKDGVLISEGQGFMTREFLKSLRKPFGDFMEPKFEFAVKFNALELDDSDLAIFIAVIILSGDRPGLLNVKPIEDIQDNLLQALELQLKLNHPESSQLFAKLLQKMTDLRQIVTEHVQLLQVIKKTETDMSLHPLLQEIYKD
UniProt P37231, 29-505: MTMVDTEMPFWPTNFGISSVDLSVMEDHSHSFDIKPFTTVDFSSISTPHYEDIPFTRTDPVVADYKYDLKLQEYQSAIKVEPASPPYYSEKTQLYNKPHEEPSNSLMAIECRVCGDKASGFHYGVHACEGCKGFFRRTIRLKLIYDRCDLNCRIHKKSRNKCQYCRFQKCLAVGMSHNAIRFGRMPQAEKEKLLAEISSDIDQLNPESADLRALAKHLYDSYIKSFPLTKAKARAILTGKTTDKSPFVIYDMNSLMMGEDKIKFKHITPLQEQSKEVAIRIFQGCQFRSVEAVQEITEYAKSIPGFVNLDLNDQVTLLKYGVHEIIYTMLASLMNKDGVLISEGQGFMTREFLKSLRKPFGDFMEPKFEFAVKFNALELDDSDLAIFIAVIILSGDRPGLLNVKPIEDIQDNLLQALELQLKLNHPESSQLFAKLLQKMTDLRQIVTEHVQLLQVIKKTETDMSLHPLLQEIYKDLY
UniProt P10275, 669-900 limits assumed, species assumed: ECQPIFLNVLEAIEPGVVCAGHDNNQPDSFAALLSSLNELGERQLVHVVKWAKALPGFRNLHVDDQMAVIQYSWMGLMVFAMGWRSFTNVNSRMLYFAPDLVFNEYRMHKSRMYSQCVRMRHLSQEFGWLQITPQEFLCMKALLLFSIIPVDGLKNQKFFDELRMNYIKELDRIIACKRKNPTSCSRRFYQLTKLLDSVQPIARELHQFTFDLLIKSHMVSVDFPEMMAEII

In US9867795B2, “Nitrated lipids and methods of making and using thereof” (The UAB Research Foundation, priority 2004, dated 2018):

How the values were obtained:
[1] = target: T1, PPARγ ligand binding domain (Homo sapiens, UniProt P37231); experiment: CV-1 Gal4 ligand binding domain luciferase reporter assay; type: cell-based; conditions: LNO2 1 μM; CV-1 cells
T1 construct: expressed in transfected cells; host or cells: CV-1 cells
Description: (§1) Cell Transient Transfection Assay. CV-1 cells from ATCC (Manassas, Va.) were grown to ˜85% confluence in DMEM/F12 supplemented with 10% FBS, 1% penicillin-streptomycin. Then, cells were transiently co-transfected with a plasmid containing the luciferase gene under regulation by four Gal4 DNA binding elements (UASG×4 TK-Luciferase, a gift from Dr. Ronald M. Evans), in concert with plasmids containing the ligand binding domain for the different nuclear receptors fused to the Gal4 DNA binding domain. For assessing full-length PPAR receptors, CV-1 cells were transiently co-transfected with a plasmid containing the luciferase gene under the control of three tandem PPAR response elements (PPRE) (PPRE×3 TK-Luciferase) and hPPARγ, hPPARα or hPPARδ expression plasmids, respectively. In all cases, fluorescence protein (GFP) expression plasmid was co-transfected as the control for the transfection efficiency. Twenty-four hours after the transfection, cells were cultured for another 24 hours in Optium-MEM (Invitrogen, Carlsbad, Calif.). Then, cells were treated with different compounds as indicated in figures for 24 hours in Optium-MEM. Reporter luciferase assay kits from Promega (Madison, Wis.) were used to measure the luciferase activity according to the manufacturer's instructions with a luminometer (Victor II, Perkin-Elmer). Luciferase activity was normalized by GFP units. […]

[2] = target: T2, androgen receptor (AR) (Homo sapiens, UniProt P10275); experiment: as above; type: cell-based; conditions: LNO2 1 μM; CV-1 cells
T2 construct: expressed in transfected cells; host or cells: CV-1 cells
Description: as §1

[3] = target: T3, hPPARγ (Homo sapiens, UniProt P37231); experiment: CV-1 PPRE×3 TK-Luciferase transient transfection assay; type: cell-based; conditions: for relative activation of PPARγ, PPARα and PPARδ: dose-dependent activation
T3 construct: For assessing full-length PPAR receptors, CV-1 cells were transiently co-transfected; expressed in transfected cells; host or cells: CV-1 cells
Text: Cell Transient Transfection Assay. […] Then, cells were transiently co-transfected with a plasmid containing the luciferase gene under regulation by four Gal4 DNA binding elements (UASG×4 TK-Luciferase, a gift from Dr. Ronald M. Evans), in concert with plasmids containing the ligand binding domain for the different nuclear receptors fused to the Gal4 DNA binding domain. For assessing full-length PPAR receptors, CV-1 cells were transiently co-transfected with a plasmid containing the luciferase gene under the control of three tandem PPAR response elements (PPRE) (PPRE×3 TK-Luciferase) and hPPARγ, hPPARα or hPPARδ expression plasmids, respectively. In all cases, fluorescence protein (GFP) expression plasmid was co-transfected as the control for the transfection efficiency. Twenty-four hours after the transfection, cells were cultured for another 24 hours in Optium-MEM (Invitrogen, Carlsbad, Calif.). Then, cells were treated with different compounds as indicated in figures for 24 hours in Optium-MEM. Reporter luciferase assay kits from Promega (Madison, Wis.) were used to measure the luciferase activity according to the manufacturer's instructions with a luminometer (Victor II, Perkin-Elmer). Luciferase activity was normalized by GFP units. Each condition was performed at least in triplicates in each experiment.
PPAR transient transfection assay. […] Twelve hours before transfection, the media was removed and antibiotic-free media was applied. Cells were transiently co-transfected with a plasmid containing the luciferase gene under the control of three tandem PPAR response elements (PPRE) (PPRE×3 TK-Luciferase) and PPARγ, PPARα or PPARδ expression plasmids, respectively. In all cases, fluorescence protein (GFP) expression plasmid was co-transfected as the control for transfection efficiency. Twenty-four hours after transfection, cells the returned to OptiMEM (Invitrogen, Carlsbad, Calif.) for 24 hr and then treated as indicated for another 24 hr. Reporter luciferase assay kits from Promega (Madison, Wis.) were used to measure the luciferase activity according to the manufacturer's instructions with a luminometer (Victor II, Perkin-Elmer). Luciferase activity was normalized by GFP units. Each condition was performed in triplicate in each experiment (n>3).

[4] = target: Human PPARγ1 (GST-PPARγ) (Homo sapiens, UniProt P37231); experiment: PPARγ competition binding assay ([^3H]Rosiglitazone displacement); conditions: read-out: binding affinity (Ki), displacement of [^3H]Rosiglitazone from PPARγ; calculated / estimated
Description: PPARγ Competition Binding Assay. Human PPARγ1 cDNA was inserted into pGEX from Amersham Biosciences Corp (Piscataway, N.J.) containing the gene encoding glutathione S-transferase (GST). GST-PPARγ protein induction and receptor binding was assessed as previously described (17).

[5] = Hydrophobic stabilization and micellar partition of LNO2; type: physicochemical; conditions: plot of 1/v vs. α, FIG. 25B
Text: Hydrophobic stabilization of LNO2—The observation that LNO2 is stable in organic solvents such as n-octanol, undergoing decay only after solvation in aqueous solutions, led us to analyze rates of •NO formation from LNO2 in the presence of non-ionic detergents. The formation of •NO was followed by EPR (measuring cPTI formation) in the presence of different concentrations of octyl-β-glucopyranoside (OG) and octyl-thio-β-glucopyranoside (OTG). The rate of •NO release was constant and not influenced by these detergents until the critical micellar concentration (CMC) for each was achieved, after which •NO formation was inhibited as the volume of the hydrophobic environment increased (FIG. 24A). Similar results were obtained when measuring •NO formation via conversion of oxymyoglobin to metmyoglobin. Apparent •NO release rates remained constant until OG concentration reached ˜2.8 mg/ml (CMC=2.77 mg/ml (11)). […] To further confirm that LNO2 was protected in lipophilic environments, LNO2 decomposition was followed by UV absorbance at 268 nm and 320 nm (FIGS. 24 C-D). […] The micellar stabilization of LNO2 was also documented in OTG-containing buffers by MS-based quantification of LNO2 after Bligh and Dyer extraction (FIG. 25A). […]

[6] = target: T4, hPPARα (Homo sapiens, UniProt Q07869); experiment: CV-1 PPRE×3 TK-Luciferase transient transfection assay; type: cell-based; conditions: PPRE reporter, CV-1 cells, P≦0.05
T4 construct: For assessing full-length PPAR receptors, CV-1 cells were transiently co-transfected; expressed in transfected cells; host or cells: CV-1 cells
T4 sequence (Q07869 1-468): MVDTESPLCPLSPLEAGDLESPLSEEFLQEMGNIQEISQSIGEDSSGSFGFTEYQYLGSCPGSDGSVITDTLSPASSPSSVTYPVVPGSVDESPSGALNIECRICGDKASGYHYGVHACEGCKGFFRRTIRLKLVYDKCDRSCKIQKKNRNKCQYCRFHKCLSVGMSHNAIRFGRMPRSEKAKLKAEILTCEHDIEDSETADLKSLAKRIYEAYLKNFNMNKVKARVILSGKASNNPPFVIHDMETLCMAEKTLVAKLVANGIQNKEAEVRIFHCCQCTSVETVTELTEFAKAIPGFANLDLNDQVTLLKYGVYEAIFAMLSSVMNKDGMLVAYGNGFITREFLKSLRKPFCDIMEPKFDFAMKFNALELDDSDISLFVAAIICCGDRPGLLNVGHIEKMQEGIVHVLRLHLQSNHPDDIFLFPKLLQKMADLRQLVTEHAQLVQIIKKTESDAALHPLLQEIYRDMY
Description: as §1, with “Optium-MEM.” for “Optium-MEM. Reporter luciferase assay kits from Promega (Madison, Wis.) were used to measure the luciferase activity according to the manufacturer's instructions with a luminometer (Victor II, Perkin-Elmer). Luciferase activity was normalized by GFP units.”
PPAR transient transfection assay. […] In all cases, fluorescence protein (GFP) expression plasmid was co-transfected as the control for transfection efficiency. […]

Substance	activation of PPARγ (Gal4 LBD reporter) [1]	AR receptor activation [2]	activation of PPARγ reporter gene expression compared with vehicle control ([3]; 1 and 3 μM, CV-1 cells, PPRE reporter)	concentration inducing the same degree of PPARγ reporter gene expression ([3]; CV-1 cells, PPRE reporter, FIG. 17B)	concentration at which PPARγ activation is significantly different from vehicle ([3]; PPRE reporter, CV-1 cells, P≦0.05)	enhancement of LNO2-mediated PPARγ activation by co-addition of 9-cis-retinoic acid ([3]; co-addition of the RXRα agonist 9-cis-retinoic acid)	relative activation of PPARγ, PPARα and PPARδ ([3]; PPRE reporter, CV-1 cells)	Ki [4]	partition constant K (hydrophobic/aqueous concentration ratio), OG micelles [5]	partition constant K (hydrophobic/aqueous concentration ratio), OTG micelles [5]	concentration at which PPARα activation is significantly different from vehicle [6]
10-nitro-9,12-octadecadienoic acid and 12-nitro-9,12-octadecadienoic acid [LNO2]	620%	no impact	rivaled that induced by Ciglitazone and Rosiglitazone	3 µM	100 nM	~180%	PPARγ showing the greatest response	~133 nM and 133 nM	1580	1320	
9- and 10-nitro-9-cis-octadecenoic acid [OA-NO2]							PPARγ showing the greatest response; also recorded: PPARγ>PPARδ>PPARα				~300 nM

Several values for one entry are separate records, joined by “and”; a condition that tells them apart may be missing. Identical values can stand only once. Entries after “also recorded” stand apart in the source; their conditions may differ.
